For two compounds, Kd and IC50 results are on record in patent publication US11440923B2, “Substituted macrocyclic indole derivatives” (Bayer Aktiengesellschaft, priority 2017, dated 2022).

Sequences of proteins named here, by UniProt entry; tags and fusion partners are left off.
UniProt Q07820, whole entry K194A/K197A/R201A, looked up: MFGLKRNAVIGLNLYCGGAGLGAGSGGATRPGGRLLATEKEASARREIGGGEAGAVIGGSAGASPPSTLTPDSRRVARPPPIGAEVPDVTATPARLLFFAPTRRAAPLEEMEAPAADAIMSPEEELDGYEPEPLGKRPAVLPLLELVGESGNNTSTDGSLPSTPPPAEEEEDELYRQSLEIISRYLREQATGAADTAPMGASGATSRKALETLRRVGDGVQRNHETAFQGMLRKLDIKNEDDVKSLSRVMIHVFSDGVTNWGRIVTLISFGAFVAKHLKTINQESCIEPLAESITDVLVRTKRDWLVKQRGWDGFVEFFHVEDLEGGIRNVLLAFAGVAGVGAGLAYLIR
UniProt Q07820, whole entry: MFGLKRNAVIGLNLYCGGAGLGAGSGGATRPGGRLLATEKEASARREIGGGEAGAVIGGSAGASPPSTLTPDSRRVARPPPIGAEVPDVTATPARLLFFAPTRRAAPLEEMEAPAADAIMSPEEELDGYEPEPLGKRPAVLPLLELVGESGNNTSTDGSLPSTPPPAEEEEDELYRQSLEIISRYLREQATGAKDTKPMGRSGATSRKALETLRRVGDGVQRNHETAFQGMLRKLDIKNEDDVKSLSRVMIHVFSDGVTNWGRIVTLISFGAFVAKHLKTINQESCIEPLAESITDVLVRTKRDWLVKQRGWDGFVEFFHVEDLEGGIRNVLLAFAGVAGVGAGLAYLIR

For one assay, the target named is MCL-1 (Homo sapiens (Human), UniProt Q07820, K194A/K197A/R201A). Put plainly: Protein-compound interaction assay (SPR assay, Assay 9). It is filed as binding. The conditions noted are these: 25° C., read-out: KD (geometric mean). The source says: Assay 9 Protein-Compound Interaction Assay (SPR Assay)
The ability of the compounds described in this invention to bind to MCL-1 may be determined using surface plasmon resonance (SPR). This allows for the quantification of binding in terms of the equilibrium dissociation constant (KD [M]), as well as association and dissociation rate constants (kon [1/Ms] and koff [1/s], respectively). The measurements may be performed using Biacore® T200 or Biacore® S200 instruments (GE Healthcare).
Briefly, carboxymethylated dextran biosensor chips (Series S Sensor Chip CMS, GE Healthcare) were activated with 1-ethyl-3-(3-dimethylaminopropyl)-carbodiimide hydrochloride (EDC) and N-hydroxysuccinimide (NHS) according to the supplier's instructions. MBP-MCL-1 was diluted in 1×PBS-P+ (GE Healthcare) and injected on the activated chip surface. Subsequently, a solution of 1 M ethanolamine-HCl (GE Healthcare) was injected to block unreacted groups, resulting in approximately 400-2500 response units (RU) of immobilized protein. A reference surface was generated by treatment with NHS-EDC and ethanolamine-HCl. […] Compounds were injected for 60 s followed by a dissociation time of up to 1000 s. […]
For orientation: In SPR one partner is held on a chip, and binding of the other changes the refractive index at the surface.

Assay [1] addresses MCL1 protein / biotinylated BIM BH3 peptide in RKO cells (Homo sapiens (Human), UniProt Q07820). As to the kind of experiment: PIxEL: protein-protein interaction in permeabilized cells by ELISA (Assay 5). It is filed as cell-based. The conditions noted are these: read-out: PIxEL IC50 (median). The method, then:
PIxEL: Protein-Protein Interaction in Permeabilized Cells by ELISA
Most MCL1 protein molecules are localized at the mitochondria outer membrane and sequester pro-apoptotic proteins through binding of their BCL2 homology domain 3 (BH3 domain). MEB buffer (150 mM mannitol, 10 mM HEPES pH 7.5, 50 mM KCl, 20 μM EDTA, 20 μM EGTA, 5 mM potassium succinate, 0.1% protease-free BSA (SIGMA) with low dose digitonin (0.002%) permeabilizes plasma membrane while leaves live mitochondria, where MCL1 maintains its native localization and conformation. Unlike biophysical assays (e.g. TR-FRET) that use truncated recombinant MCL1 protein, this assay uses full length endogenous MCL1 protein at mitochondria outer membrane. It measures the interaction between MCL1 protein and biotinylated BIM BH3 peptide. Compounds can compete with BIM BH3 peptide to bind to MCL1 protein.
On day 1, RKO colon cancer cell line cells were plated at 0.8 million cells/ml, 100 μl/well in 96-well flat bottom TC plates (Corning). […]
On the third day, ELISA plates were washed once with 250 μl 1×PBST. […] Plates were shaken for 1 minute then luminescence was measured by Envision plate reader (HP). […] IC50 was calculated using Graphic Pad PRISM software.
On the technique in general: In an ELISA, binding on a coated surface is turned into a signal by an enzyme label.

Take `CCc1c2c(nn1C)C(CCN1CCOCC1)OCC(F)(F)CCn1c(C(=O)O)c(CCCOc3cccc4cc(F)ccc34)c3ccc(Cl)c-2c31` (single isomer, unassigned; (+)) [Example 90, (+)-4-chloro-3-ethyl-12,12-difluoro-7-{3-[(6-fluoronaphthalen-1-yl)oxy]propyl}-2-methyl-15-[2-(morpholin-4-yl)ethyl]-2,10,11,12,13,15-hexahydropyrazolo[4′,3′:9,10][1,6]oxazacycloundecino[8,7,6-hi]indole-8-carboxylic Acid]: the Kd on MCL-1 came out at 0.57 nM. As for `CCc1c2c(nn1C)C(CCN1CCOCC1)OCC(F)(F)CCn1c(C(=O)O)c(CCCOc3cccc4cc(F)ccc34)c3ccc(Cl)c-2c31` (centres unmarked) [Example 86, 4-chloro-3-ethyl-12,12-difluoro-7-{3-[(6-fluoronaphthalen-1-yl)oxy]propyl}-2-methyl-15-[2-(morpholin-4-yl)ethyl]-2,10,11,12,13,15-hexahydropyrazolo[4′,3′:9,10][1,6]oxazacycloundecino[8,7,6-hi]indole-8-carboxylic Acid], in assay [1], the IC50 came to 49.4 nM.

As a reminder, the Kd is the free concentration of one partner at which half of the binding sites on the other are occupied at equilibrium, for simple one-to-one binding. A word on the IC50: it is the concentration that inhibits the measured activity by half.
